Source: patent US20030175817A1 (published 2003)

Protein sequences, listed by entry. Tags and fused reporters are not part of them. Lines headed by an entry give the natural chain unless they say otherwise; changes in a name come on top.
UniProt P10275: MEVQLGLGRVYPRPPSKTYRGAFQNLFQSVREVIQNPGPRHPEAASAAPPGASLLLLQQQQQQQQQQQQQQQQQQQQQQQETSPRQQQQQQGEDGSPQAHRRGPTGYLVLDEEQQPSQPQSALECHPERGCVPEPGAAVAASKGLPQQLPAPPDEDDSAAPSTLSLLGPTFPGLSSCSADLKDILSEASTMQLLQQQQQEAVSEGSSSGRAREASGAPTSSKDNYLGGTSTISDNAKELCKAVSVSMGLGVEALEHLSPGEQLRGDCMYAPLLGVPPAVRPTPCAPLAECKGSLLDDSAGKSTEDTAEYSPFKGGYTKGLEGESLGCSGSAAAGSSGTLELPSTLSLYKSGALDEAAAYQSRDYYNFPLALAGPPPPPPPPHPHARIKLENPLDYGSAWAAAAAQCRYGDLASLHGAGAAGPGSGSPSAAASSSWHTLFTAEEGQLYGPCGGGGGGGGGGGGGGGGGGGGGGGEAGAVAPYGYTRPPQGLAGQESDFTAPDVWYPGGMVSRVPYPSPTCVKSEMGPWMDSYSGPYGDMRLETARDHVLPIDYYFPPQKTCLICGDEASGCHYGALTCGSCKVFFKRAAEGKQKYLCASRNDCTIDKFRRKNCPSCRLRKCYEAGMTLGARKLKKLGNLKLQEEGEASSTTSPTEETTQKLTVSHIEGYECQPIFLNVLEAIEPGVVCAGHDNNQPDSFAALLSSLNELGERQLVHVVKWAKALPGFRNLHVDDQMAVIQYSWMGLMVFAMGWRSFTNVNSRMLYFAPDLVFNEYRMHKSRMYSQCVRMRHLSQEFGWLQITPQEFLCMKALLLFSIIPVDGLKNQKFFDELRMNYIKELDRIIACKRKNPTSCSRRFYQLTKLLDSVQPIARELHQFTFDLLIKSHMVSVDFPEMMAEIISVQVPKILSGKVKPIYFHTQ

Target: androgen receptor (AR) (Homo sapiens, UniProt P10275)
Experiment: ARE-CAT reporter assay in AR-transfected MDAH041 cells, with or without cyclin E
Conditions: for AR function (CAT activity) when cyclin E was co-transfected: AR plus cyclin E expression vectors, 1000 molar excess of 5-OH—F, substantial CAT activity remained

CC(C)(O)C(=O)Nc1ccc([N+](=O)[O-])c(C(F)(F)F)c1 [5-hydroxyflutamide] was tested, and the “DHT-induced activation of the ARE-CAT reporter construct” value (AR expression vector, no cyclin E, 10^−9 M dihydrotestosterone, 10^−5 M 5-hydroxy-flutamide, 18 h) was “inhibited totally”, the “AR function (CAT activity) when cyclin E was co-transfected” value was “not sufficiently inhibited” and the “AR function (CAT activity) when cyclin E was co-transfected” value (listed as 5-OH—F) was “not completely suppressed”.
